The conditions of the data set: experimental values, compiled.

Compound `CCN(CC)CCN(C=O)c1c(C)cccc1C` yielded a logP of 3.21.
The compound `CCC(=O)n1c(=O)n(C2CCN(CCC(C#N)(c3ccccc3)c3ccccc3)CC2)c2ccccc21` returned a logP of 4.8.

One may read the logP as a log measure of how a compound divides between an organic and an aqueous phase.

The record behind these values is the OPERA property sets (Mansouri et al. 2018).
